The chains behind the UniProt entries cited, without tags or fusion partners. Residues count along the entry.
UniProt P01106, 368-452 limits assumed: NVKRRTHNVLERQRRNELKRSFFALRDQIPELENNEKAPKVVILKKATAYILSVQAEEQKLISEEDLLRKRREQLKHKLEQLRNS

In patent US8637556B2, “Linked Myc-max small molecule inhibitors” (University of Pittsburgh—Of the Commonwealth System of …, priority 2009, dated 2014):

What was measured:
[1] = target: c-Myc353-437 (monomeric c-Myc bHLH-ZIP) (Homo sapiens, UniProt P01106); assay: Fluorescence polarization titration, c-Myc bHLH-ZIP binding; conditions: for c-Myc binding affinity (in words): FP; for Kd: read-out: KD (c-Myc affinity, bivalent), Table 1, FP of nitrobenzofurazan moiety, c-Myc353-437
Excerpt: A c-Myc353-437 full-length bHLH-ZIP domain and its truncated version c-Myc390-439 were produced from the c-Myc/pET SKB3 construct, kindly supplied by Dr. S. K. Nair (University of Illinois, Urbana-Champaign), by insertion into the pET151D vector, encoding an N-terminal hexahistidine (6× His), separated by a TEV protease digestion site, with the TOPO® ligation system, and over-expressed in E. coli BL21DE3(pLysS). The 6× His tagged human Max isoform p21, with low homodimerization affinity^70, cloned into the pQE10 vector (Qiagen, Inc.), was over-expressed in E. coli M15(pRep4). Bacterial cultures were grown at 37° C. in LB medium to OD600≈0.8, then induced with 0.5 mM IPTG for 5 hours. Proteins were purified by Ni-agarose chromatography with a pH gradient elution. The 6× His tag of c-MYC353-437 and c-Myc390-439 was cleaved using TEV protease (the TEV protease was expressed in a pET24 vector [courtesy of S. K. Nair] and purified by Ni-agarose chromatography under native conditions). All the proteins were further purified by HPLC and lyophilized. Protein concentrations were determined by measurement of OD280. The synthetic peptide c-Myc363-381 is described in Follis, A. V., Hammoudeh, D. I., Wang, H., Prochownik, E & Metallo, S. J. Structural rationale for the coupled binding and unfolding of the c-Myc oncoprotein by small molecules. Chemistry & Biology 15, 1149-1155 (2008).
Samples were analyzed in a Photon Technology International QuantaMaster fluorimeter (Birmingham, N.J.) equipped with polymer sheet polarizers. Titration experiments were performed upon serial dilution of 1:1 equimolar solution of inhibitor and either c-Myc353-437, c-Myc390-439 or c-Myc363-381 in a 1×PBS buffer (137 mM NaCl, 2.7 mM KCl, 4.3 mM Na2HPO4, 1.4 mM KH2PO4, pH=7.4), 5% DMSO, over concentrations ranging between 200 μM and 1.5 nM. Excitation and emission wavelengths were independently determined for each inhibitor. Reported data represent the average of at least three independent experiments. […]
[formula] where [C]0 represents the total concentration of inhibitor and of c-Myc peptide. The value of KD was determined from the experimental polarization data by fitting to Eq. 2 using KaleidaGraph (Synergy Software, Reading, Pa.) where pol0 is the polarization in the absence of binding and Δpol is the total change in polarization (Park, S. H. & Raines, R. T. Fluorescence polarization assay to quantify protein-protein interactions. Methods in Molecular Biology 261, 161-6 (2004)).
[formula] Due to the very tight binding of some of the tested compounds, it was impossible to perform a full binding titration with an acceptable fluorescence intensity, therefore the polo parameter was experimentally determined from samples of each compound in the absence of c-Myc353-437 at a concentration of 25 μM. […]

[2] = target: c-Myc-Max heterodimer binding to E-Box DNA (Homo sapiens, UniProt P01106); assay: Electrophoretic mobility shift assay (EMSA) of c-Myc-Max DNA binding; conditions: c-Myc-Max dimer 1 μM, 10 nM E-Box DNA
[3] = tested on: Daudi Burkitt lymphoma cells; assay: Burkitt's lymphoma cell growth inhibition (MTT assay); type: cell-based, human; conditions: read-out: Growth inhibition BL, Table 3, third day
[4] = tested on: HL60 promyelocytic leukemia cells; assay: HL60 cell growth inhibition (MTT assay); type: cell-based, human; conditions: read-out: Growth inhibition HL60, Table 3, third day

**Q.** How did the “c-Myc binding affinity (in words)” value [1] turn out when `O=C(CNC(=O)c1ccc(Nc2ccc([N+](=O)[O-])c3nonc23)cc1)NCCCCCNC(=O)c1ccc(/C=C2\SC(=S)NC2=O)cc1` was run?
**A.** Its value is “considerably reduced binding affinity”.

**Q.** For `CCc1ccc(/C=C2\SC(=O)N(CCCCCCNC(=O)CCCCCNC(=O)c3ccc(Nc4ccc([N+](=O)[O-])c5nonc45)cc3)C2=O)cc1`, which Kd [1] is on record?
**A.** Its Kd is 5 nM.

**Q.** Which results are given for `CCc1ccc(/C=C2\SC(=O)N(CCCCCCNC(=O)c3ccc(Nc4ccc([N+](=O)[O-])c5nonc45)cc3)C2=O)cc1`?
**A.** Disruption of c-Myc-Max DNA (E-Box) binding [2]: Strong disruption of DNA binding; IC50 [3]: 2000 to 4000 nM; c-Myc binding affinity (in words) [1]: highest affinity; Kd [1]: 0.6 nM; IC50 [4]: 7000 to 9000 nM

**Q.** How did the “Disruption of c-Myc-Max DNA (E-Box) binding” value [2] turn out when `O=C1NC(=S)S/C1=C\c1ccc(C(=O)NCCCCCNC(=O)c2ccccc2Nc2ccc([N+](=O)[O-])c3nonc23)cc1` was run?
**A.** The value was “Strong disruption of DNA binding”.
